Results reported in patent publication US20260216354A1, “ANTI-CMET ANTIBODY, ANTIBODY-DRUG CONJUGATE, AND PREPARATION METHOD THEREFOR AND USE THEREOF” (MEDILINK THERAPEUTICS (SUZHOU) CO., LTD., priority 2022, published 2026).

Biological target: T1, mouse cMet-ECD-His (Mus musculus, UniProt P16056)
T1 construct: a mouse cMet ectodomain recombinant protein (mouse cMet-ECD-His, c-MET Protein, Mouse, Recombinant (ECD, His Tag)); purchased Sino Biological, Inc. 50622-M08H
T1 sequence (P16056 25-931 limits assumed): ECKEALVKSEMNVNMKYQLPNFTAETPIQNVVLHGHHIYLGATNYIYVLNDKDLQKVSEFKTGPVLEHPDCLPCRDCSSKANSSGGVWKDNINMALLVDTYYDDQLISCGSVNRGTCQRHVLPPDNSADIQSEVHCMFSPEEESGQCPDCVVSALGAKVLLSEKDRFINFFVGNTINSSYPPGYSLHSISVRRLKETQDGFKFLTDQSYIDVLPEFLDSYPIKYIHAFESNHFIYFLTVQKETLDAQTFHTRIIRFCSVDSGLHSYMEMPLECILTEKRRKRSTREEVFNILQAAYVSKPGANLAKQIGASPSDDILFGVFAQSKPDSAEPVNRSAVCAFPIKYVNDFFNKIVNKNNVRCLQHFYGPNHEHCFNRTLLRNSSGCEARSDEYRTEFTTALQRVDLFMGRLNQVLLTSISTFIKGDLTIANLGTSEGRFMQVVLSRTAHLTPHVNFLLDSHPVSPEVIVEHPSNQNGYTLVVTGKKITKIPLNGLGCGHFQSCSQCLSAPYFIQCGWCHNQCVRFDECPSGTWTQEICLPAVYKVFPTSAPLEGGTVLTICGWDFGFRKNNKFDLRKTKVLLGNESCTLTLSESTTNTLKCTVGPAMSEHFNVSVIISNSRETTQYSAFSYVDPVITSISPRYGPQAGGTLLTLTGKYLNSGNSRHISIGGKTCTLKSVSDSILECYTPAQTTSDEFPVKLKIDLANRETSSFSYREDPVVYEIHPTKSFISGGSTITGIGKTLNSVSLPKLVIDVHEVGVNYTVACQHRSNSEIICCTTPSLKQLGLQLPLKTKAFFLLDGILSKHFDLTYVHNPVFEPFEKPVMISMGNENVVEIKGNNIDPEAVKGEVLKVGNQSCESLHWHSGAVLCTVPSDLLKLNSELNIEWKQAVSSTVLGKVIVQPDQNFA
Test: ELISA cross-detection with mouse cMet
Assay type: binding
Conditions: FIG. 2

B1: 55A10G6-Hz: humanized anti-c-Met antibody, IgG1/Kappa; HC SEQ ID NO: 58, LC SEQ ID NO: 59 (antibody)
heavy: QIQLVQSGAEVKKPGASVKVSCKASGYTFTDYYLNWVRQAPGQGLEWMGWIFPGSGNTKYSQKFQGRVTLTVDTSASTAYMELSSLRSEDTAVYYCAGGDYGGFTYWGQGTLVTVSSASTKGPSVFPLAPSSKSTSGGTAALGCLVKDYFPEPVTVSWNSGALTSGVHTFPAVLQSSGLYSLSSVVTVPSSSLGTQTYICNVNHKPSNTKVDKKV[human IgG1 Fc omitted here]
light: DIQMTQSPSSLSASVGDRVTITCGASENIYGALNWYQQKPGKAPKLLIYGATNLAAGVPSRFSGSGSGRDFTLTISSLQPEDFATYYCQNVLSEPLTFGQGTKVEIKRTVAAPSVFIFPPSDEQLKSGTASVVCLLNNFYPREAKVQWKVDNALQSGNSQESVTEQDSKDSTYSLSSTLTLSKADYEKHKVYACEVTHQGLSSPVTKSFNRGEC
Question: For B1, which “cross with mouse cMet (binding)” value is on record?
Answer: do not bind
